Drawing on paper PMC1892040 (PLoS Medicine, 2007), this text covers IC50 for two compounds.

Chains of the proteins cited; added tags and fusions are not shown. Residues count along the entry.
UniProt P00390, 44-522 limits assumed: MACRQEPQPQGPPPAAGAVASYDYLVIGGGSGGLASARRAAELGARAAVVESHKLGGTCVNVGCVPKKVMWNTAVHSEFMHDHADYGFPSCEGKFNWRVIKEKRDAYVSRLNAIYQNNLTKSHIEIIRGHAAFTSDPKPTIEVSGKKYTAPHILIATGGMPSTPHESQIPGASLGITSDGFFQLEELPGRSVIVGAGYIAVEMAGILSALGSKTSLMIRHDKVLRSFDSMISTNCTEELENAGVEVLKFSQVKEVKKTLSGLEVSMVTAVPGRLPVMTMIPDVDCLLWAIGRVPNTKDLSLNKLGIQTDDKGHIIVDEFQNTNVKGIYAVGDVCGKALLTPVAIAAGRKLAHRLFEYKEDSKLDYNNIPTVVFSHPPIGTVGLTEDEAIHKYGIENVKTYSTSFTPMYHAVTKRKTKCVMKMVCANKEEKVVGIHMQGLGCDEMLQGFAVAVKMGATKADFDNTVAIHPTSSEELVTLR
UniProt Q16881, 151-649: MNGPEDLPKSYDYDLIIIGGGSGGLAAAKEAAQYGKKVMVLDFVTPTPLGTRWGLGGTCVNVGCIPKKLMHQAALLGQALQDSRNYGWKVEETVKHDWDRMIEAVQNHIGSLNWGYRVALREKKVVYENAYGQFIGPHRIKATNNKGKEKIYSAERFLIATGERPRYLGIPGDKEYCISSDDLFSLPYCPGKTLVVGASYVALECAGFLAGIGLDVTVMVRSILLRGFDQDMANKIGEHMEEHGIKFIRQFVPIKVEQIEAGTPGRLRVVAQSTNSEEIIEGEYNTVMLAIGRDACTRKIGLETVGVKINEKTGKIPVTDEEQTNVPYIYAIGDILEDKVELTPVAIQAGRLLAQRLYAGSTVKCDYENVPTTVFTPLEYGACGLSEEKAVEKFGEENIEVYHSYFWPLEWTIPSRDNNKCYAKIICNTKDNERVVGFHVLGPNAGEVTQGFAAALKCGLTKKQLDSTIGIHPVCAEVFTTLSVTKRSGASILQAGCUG

pIC50: −log10 of the molar value. Where two headings read alike, the source gives them in different places.

For experiment [1], the target named is T1, Human GR (Homo sapiens, UniProt P00390). Description: Inhibition of human GR (GSSG). Format: biochemical. The settings on record: read-out: IC50 Human GR, GSSG; 50 μM GSSG under steady state conditions. As to the method:
(§1) In order to assess the potential for inhibition of TGR we screened several structurally diverse series of compounds (Figure S1) known to act as inhibitors of disulfide reductases from various organisms. Screening was performed with a TGR assay using DTNB, including a 15 min preincubation of recombinant enzyme, inhibitor, and NADPH before addition of substrate (Table 3).

For experiment [2], the target named is T2, Human TrxR (Homo sapiens, UniProt Q16881). The settings on record: read-out: IC50 Human TrxR, DTNB/Trx; cited from earlier work.
The target in experiment [3] is T2, Human TrxR. Description: Inhibition of human TrxR (DTNB/Trx). As to conditions: read-out: IC50 Human TrxR, preincubation 5 min at 25 °C, tested form: HCl. Format: biochemical. The method, then: as §1
The target of experiment [4] is T1, Human GR. The settings on record: read-out: IC50 Human GR, GSSG; tested form: HCl; cited from earlier work.

With `CC1=C(CBr)C(=O)c2c(O)ccc(O)c2C1=O`, the values for the pIC50 at Human GR [1] and on Human TrxR [2] were 5.35 and 7.10, respectively.

In the case of `CN(C)CCC(=O)/C=C/c1ccccc1Cl`, the pIC50 is 5.96 at Human TrxR [3] (21 μM Trx), 4.74 on Human TrxR [3] (3 mM DTNB) and less than 3.00 on Human GR [4].
